The results in this text go back to ChEMBL document CHEMBL1133607, “Nonpeptide analogues of dynorphin A(1-8): design, synthesis, and pharmacological evaluation of kappa-selective agonists” (J Med Chem, 2000).

Amino acid sequences for entries named in this document (tags omitted). A change or cut given only in a name is not applied to a line headed by its entry.
UniProt P33533, whole entry, looked up: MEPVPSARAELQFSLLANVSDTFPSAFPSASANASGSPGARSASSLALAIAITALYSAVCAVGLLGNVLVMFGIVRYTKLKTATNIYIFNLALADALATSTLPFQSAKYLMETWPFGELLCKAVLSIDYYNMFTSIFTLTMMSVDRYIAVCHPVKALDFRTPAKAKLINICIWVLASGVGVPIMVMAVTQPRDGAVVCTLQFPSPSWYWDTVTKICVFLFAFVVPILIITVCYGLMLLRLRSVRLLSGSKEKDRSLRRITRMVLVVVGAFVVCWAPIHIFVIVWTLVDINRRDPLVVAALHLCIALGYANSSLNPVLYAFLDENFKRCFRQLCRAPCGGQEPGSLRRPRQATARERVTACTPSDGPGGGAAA
UniProt P41144: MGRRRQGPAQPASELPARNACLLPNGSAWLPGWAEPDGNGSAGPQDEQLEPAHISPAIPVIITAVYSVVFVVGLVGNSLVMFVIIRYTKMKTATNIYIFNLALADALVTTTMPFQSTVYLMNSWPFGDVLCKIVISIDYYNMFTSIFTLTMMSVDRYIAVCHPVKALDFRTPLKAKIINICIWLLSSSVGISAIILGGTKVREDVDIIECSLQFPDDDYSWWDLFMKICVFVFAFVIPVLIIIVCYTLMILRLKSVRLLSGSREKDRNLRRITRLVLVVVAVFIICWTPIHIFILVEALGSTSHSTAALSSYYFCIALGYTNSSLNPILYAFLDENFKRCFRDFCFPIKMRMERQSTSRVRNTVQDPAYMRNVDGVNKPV
UniProt P33535, whole entry, looked up: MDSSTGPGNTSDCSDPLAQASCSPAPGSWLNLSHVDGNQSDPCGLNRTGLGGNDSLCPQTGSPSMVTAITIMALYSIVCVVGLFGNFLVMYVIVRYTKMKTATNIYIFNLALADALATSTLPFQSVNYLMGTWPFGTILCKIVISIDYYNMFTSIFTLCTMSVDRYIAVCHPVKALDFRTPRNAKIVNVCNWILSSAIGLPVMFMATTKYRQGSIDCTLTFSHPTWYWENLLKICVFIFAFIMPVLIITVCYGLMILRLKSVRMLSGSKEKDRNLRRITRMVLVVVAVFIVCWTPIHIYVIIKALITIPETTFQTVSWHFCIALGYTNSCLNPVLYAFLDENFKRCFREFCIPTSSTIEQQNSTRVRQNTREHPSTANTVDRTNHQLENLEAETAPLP

In assay [1] the target is Delta-type opioid receptor (Rattus norvegicus, UniProt P33533). Description: Tested for binding affinity by [3H]diprenorphine displacement for Opioid receptor delta 1 are carried on crude membrane fractions obtained from the whole rat brain minus cerebellum.
For assay [2], the target named is Kappa-type opioid receptor (Cavia porcellus, UniProt P41144).
Assay [3] concerns Mus musculus. Description: Effective dose of the compounds at 10 mg/kg of nor-BNI was administered subcutaneously 10 min before agonist were administered in mice for rotarod test. As to conditions: route subcutaneous. On the technique in general: Falling from the rotarod earlier than controls is read as motor impairment.
The subject of assay [4] is Mus musculus. As to the kind of experiment: Effective dose at 10 mg/kg of nor-BNI was administered subcutaneously 10 min before agonist were administered in mice to test the antinociceptive activity. As to conditions: route subcutaneous.
Assay [5] has as its target Mu-type opioid receptor (Rattus norvegicus, UniProt P33535). Description: Tested for binding affinity by [3H]diprenorphine displacement for Opioid receptor mu 1 was carried on crude membrane fractions obtained from the whole rat brain minus cerebellum..

What is called Ki is a dissociation constant, usually derived from enzyme kinetics or from competition with a known ligand. A lower Ki goes with a stronger hold on the target. One may read the ED50 as the midpoint of the dose-response relation. Low values mean an effect at a small dose, high ones a need for a large dose. Regarding `CN(C(=O)Cc1ccc(Cl)c(Cl)c1)C1CCCCC1N1CCCC1` (stereo not given), the values for the Ki in assay [1], in assay [2] and in assay [5] were 8100 nM, 5.01 nM and 716 nM, respectively. Also, the median effective dose (ED50) in assay [3] is 8.2 mg/kg; in assay [4] it was 0.76 mg/kg.
